In experiment [1] the target is TYK2 (Homo sapiens, UniProt P29597). As to the kind of experiment: TYK2 kinase ADP-Glo assay (Example 59). In kind it is biochemical. More on the design: purchased Invitrogen PV4790. For orientation: ADP-Glo turns the ADP formed in a reaction into a luminescent signal.
Experiment [2] addresses T1, TYK2 (Homo sapiens, UniProt P29597).
T1 sequence (P29597 871-1187 limits assumed): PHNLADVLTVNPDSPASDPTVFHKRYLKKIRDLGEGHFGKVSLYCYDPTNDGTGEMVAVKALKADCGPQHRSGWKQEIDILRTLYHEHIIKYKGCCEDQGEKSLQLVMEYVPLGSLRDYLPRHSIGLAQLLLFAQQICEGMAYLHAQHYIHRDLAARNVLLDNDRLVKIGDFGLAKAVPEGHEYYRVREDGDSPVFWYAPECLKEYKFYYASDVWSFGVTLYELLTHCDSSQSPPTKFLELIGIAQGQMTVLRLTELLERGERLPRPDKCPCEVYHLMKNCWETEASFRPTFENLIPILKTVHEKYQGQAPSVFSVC
Briefly: TYK2 kinase ADP-Glo assay (Example 60). The conditions noted are these: IC50 (nM), TYK2 Experiment, Example 60, second series (MDI-237 to MDI-263); TYK2 (Carna) 10 nM, ATP 10 μM, IRS1 0.02 mg/mL.

The structures appear in SMILES notation.

As a reminder, the IC50 is the point on the concentration scale where inhibition reaches its midpoint. A lower IC50 goes with greater potency in that assay. For `O=C(Nc1nc2cccc(-c3ccc(CN4CCS(=O)(=O)CC4)cc3)n2n1)C1CC1` [reference compound], the IC50 in experiment [1] stood at 128 nM; in experiment [2], 233 nM.
